Patent CN114149501A
pKd: −log10 of the molar value.

Assays:
[1] = target: 人源重组C5蛋白 (Sino Biologica, Cat#13416-H18H) (human) (UniProt P01031); assay: BLI (Octet), antibody on AHC sensor, C5 0.4688-30 nM; run no. 3
[2] = target: 人源重组C5蛋白 (Sino Biologica, Cat#13416-H18H) (human) (UniProt P01031); assay: BLI (Octet), antibody on AHC sensor, C5 0.4688-30 nM; run no. 4
[3] = target: 人源重组C5蛋白 (Sino Biologica, Cat#13416-H18H) (human) (UniProt P01031); assay: BLI (Octet), antibody on AHC sensor, C5 0.4688-30 nM; run no. 2
[4] = target: 人源重组C5蛋白 (Sino Biologica, Cat#13416-H18H) (human) (UniProt P01031); assay: BLI (Octet), antibody on AHC sensor, C5 0.4688-30 nM; run no. 1
[5] = target: 人源重组C5蛋白 (Sino Biologica, Cat#13416-H18H) (human) (UniProt P01031); assay: BLI (Octet), antibody on AHC sensor, C5 0.4688-30 nM; run no. 5

pKd [1]: 9.40
koff [1]: 0.000152 s⁻¹
kon [1]: 381000 M⁻¹ s⁻¹
pKd [2]: 9.36
koff [2]: 0.000164 s⁻¹
kon [2]: 377000 M⁻¹ s⁻¹
pKd [3]: 9.42
koff [3]: 0.000149 s⁻¹
kon [3]: 394000 M⁻¹ s⁻¹
pKd [4]: 9.26
koff [4]: 0.0003 s⁻¹
kon [4]: 544000 M⁻¹ s⁻¹
pKd [5]: 9.43
koff [5]: 0.00013 s⁻¹
kon [5]: 351000 M⁻¹ s⁻¹
Substance: 伊库利珠单抗(Eculizumab，Soliris/Alexion) (antibody)
